Amino acid sequences for entries named in this document (tags omitted). A change or cut given only in a name is not applied to a line headed by its entry.
UniProt P05067: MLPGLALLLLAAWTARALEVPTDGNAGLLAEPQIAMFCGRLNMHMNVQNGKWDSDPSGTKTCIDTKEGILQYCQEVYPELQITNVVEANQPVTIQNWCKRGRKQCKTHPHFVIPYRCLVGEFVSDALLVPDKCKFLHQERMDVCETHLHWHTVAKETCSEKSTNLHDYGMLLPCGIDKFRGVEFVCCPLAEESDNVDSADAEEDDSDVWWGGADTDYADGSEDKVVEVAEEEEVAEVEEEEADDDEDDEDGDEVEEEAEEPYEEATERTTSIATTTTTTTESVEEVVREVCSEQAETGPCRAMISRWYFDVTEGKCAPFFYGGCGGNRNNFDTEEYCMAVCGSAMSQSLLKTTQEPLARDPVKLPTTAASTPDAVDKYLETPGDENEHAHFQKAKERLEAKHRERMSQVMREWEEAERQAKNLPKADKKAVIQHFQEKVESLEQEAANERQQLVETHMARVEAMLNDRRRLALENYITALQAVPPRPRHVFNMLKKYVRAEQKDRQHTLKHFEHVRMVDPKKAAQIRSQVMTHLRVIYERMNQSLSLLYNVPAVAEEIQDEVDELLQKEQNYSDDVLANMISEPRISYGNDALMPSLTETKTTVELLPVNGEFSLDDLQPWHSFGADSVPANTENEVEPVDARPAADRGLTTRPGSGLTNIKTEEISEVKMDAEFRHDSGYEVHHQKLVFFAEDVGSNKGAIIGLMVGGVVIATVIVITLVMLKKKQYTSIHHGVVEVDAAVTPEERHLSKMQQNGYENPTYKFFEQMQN

According to patent publication US9534016B2, “Netrin loop peptide mimetics and uses thereof” (Buck Institute for Research on Aging, priority 2011, dated 2017):

Tests used:
sAPPα/Aβ42 ratio = sAPPα/Aβ42 ratio by AlphaLisa assay in APP transfected cells
[1] = tested on: ERK phosphorylation associated with APP based cell signaling; assay: ERK phosphorylation, Western blot, B103 cells co-transfected with APP
Description: This effect is not seen with cyclic peptide-2 or cyclic peptide-3. Netrin-1 induces ERK phosphorylation both in APP cells and in cells without APP such as having DCC. Cyclic peptide-1 is APP specific
ERK phosphorylation is associated with cell signaling. […] This assay was based on a western blot analysis.

eAPP575-624 = eAPP575-624 (Homo sapiens, UniProt P05067); assay: Surface plasmon resonance (SPR) binding to eAPP fragments; settings: data shown for eAPP575-624

C-I-D-P-C
sAPPalpha/Abeta42 ratio (sAPPα/Aβ42 ratio; 100 μM in APP CHO cells): specific increase | sAPPα/Aβ42 ratio (sAPPα/Aβ42 ratio; AlphLisa assay, stably transfected APP in B103 cells, over untreated controls): specific increase | specificity of ERK phosphorylation for APP ([1]; APP cells versus cells without APP): APP specific | ERK phosphorylation ([1]; Western blot, APP cells (B103 co-transfected with APP), cyclic peptide-1 at 21 uM): ERK phosphorylation | modulate ERK phosphorylation and/or switch APP processing from aberrant to normal ([1]; cyclized loop peptides prepared and tested): shown to modulate ERK phosphorylation and/or to switch APP processing from aberrant to normal | binding to eAPP fragments by SPR (eAPP575-624): binds eAPP fragments
